Each block holds one binder with its values, some of them ahead of it. Non-standard residues stand in square brackets, D forms with d. No end group written: not given here. Tetrakis‑20K‑SPA PEG arm = one arm of a 20 kDa four-arm PEG succinimidyl propionate (Tetrakis-20K-SPA); d2Nal = N[C@H](Cc1ccc2ccccc2c1)C(=O)O; Gly(cPent) = N[C@H](C(=O)O)C1CCCC1; Hyp = O=C(O)[C@@H]1C[C@@H](O)CN1; dTic = O=C(O)[C@H]1Cc2ccccc2CN1
Molecular target: T1, human bradykinin B1 receptor (human, UniProt P46663 1-353)
T1 construct: whole, on cells; For the IC50 values the receptor was stably expressed in a CHO D-/hB1/Aequorin cell line; also called hB1
T1 sequence (looked up): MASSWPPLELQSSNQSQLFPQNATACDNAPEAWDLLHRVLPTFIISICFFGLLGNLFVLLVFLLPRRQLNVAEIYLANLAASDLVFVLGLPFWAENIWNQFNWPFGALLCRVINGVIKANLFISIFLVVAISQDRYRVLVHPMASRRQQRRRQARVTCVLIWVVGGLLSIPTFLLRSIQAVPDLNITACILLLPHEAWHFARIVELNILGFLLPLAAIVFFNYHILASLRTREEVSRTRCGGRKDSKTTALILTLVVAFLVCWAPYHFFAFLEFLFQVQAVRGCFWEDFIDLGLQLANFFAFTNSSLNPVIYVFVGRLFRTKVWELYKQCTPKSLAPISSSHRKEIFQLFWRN
Assay: binding affinity (Ki) at the human B1 receptor; assay format not described

Binder: [dK][d2Nal]RP[Hyp]G[Gly(cPent)]S[dTic][Gly(cPent)] [SEQ ID NO: 49]
Ki: 770 pM

B1: MeO-20K-Maleimide PEG conjugate of SEQ ID NOS: 29 + 42 (peptide)
peptide: CGGGGGKKRPGFSPLGGGGGKKRPPGFSPL
modifications: 20K methoxy-PEG coupled through maleimide to the thiol of the N-terminal Cys 1 (one-pot process of Scheme 4)
notes: Built as one tandem chain X^1-Y^1 after the column head '(X^1) - (Y^1)0 or 1'
Ki: 22000 pM

More lines, now with the values ahead:

Ki: 140 pM
Binder: KKRP[Hyp]G[Gly(cPent)]S[dTic][Gly(cPent)] (not fully specified (N-terminus); also: 4 peptides per four-arm 20K PEG)

Ki: 140 pM
Binder: K(Tetrakis‑20K‑SPA PEG arm)KRP[Hyp]G[Gly(cPent)]S[dTic][Gly(cPent)] (also: 4 peptides per four-arm 20K PEG)
